Apparent affinities of Ab-14 variants for a coronavirus HR2 peptide

The measurements come from Engelhart et al. 2022 (doi:10.1038/s41597-022-01779-4) through the FLAb antibody collection.

The target is the same throughout: PDVDLGDISGINAS, from the HR2 region of SARS-CoV-2 spike.

Ab-14 is the parent antibody, in scFv form: VH, then a (GGGGS)3 linker, then VL. The heavy chain is unchanged in all variants.
VH: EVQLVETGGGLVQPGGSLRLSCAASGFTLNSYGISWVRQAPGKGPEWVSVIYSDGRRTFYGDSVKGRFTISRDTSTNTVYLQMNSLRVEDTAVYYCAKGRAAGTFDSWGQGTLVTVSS
VL: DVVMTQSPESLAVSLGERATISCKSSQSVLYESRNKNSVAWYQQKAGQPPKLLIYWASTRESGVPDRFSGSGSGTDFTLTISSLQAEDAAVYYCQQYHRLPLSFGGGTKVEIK

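Phage display of a naive human antibody library on the peptide gave the parent. AAYL50 was designed without a model: most single CDR substitutions and a random sample of double and triple ones. The assay is AlphaSeq: two haploid yeast populations carry antibody and antigen on their surface. Mating (16 h, 30 °C) was followed by selection of diploids and sequencing of their barcodes. The ratio of observed to expected reads was calibrated, replicate by replicate, on BCL2-family standards whose Kd was known from biolayer interferometry. Each pool was mated in three replicate cultures.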

The parent's light chain CDRs are KSSQSVLYESRNKNSVA, WASTRES, QQYHRLPLS; each variant's own CDRs replace them letter for letter. The read-out is the apparent dissociation constant on a log10 scale (nM): the lower, the stronger. The mean shown is taken over the replicates in which the pair was detected. An entry "nd" has no value in the source: the pair was not observed among the diploids in that replicate. This suggests poor binding but is not conclusive. Three control strains display no target. For library AAYL50, 18% of the pairings with them gave a signal, with a median of 4.19 and one signal in twenty below 2.99, so weak values seen in few replicates may be background. For each scFv, signals with the empty controls are counted beside the result, with their mean in brackets.

CDR-L1 | CDR-L2 | CDR-L3 | log10 Kd, replicates | mean, log10 nM | empty controls
KSSQSVLYESRNKNSVA | WASDRES | QQYHRCPTS | 1.98 / 1.76 / 1.98 | 1.91 | 1 of 9 (3.89)
KSSQSVLYESRNKNSVA | WASTRES | QQEHPLGLS | 6.23 / 4.00 / nd | 5.12 | 1 of 9 (3.95)
KSSQSVLGKFRNKNSVA | WASTRES | QQYHRLPLS | 1.51 / 1.65 / 1.51 | 1.56 | 3 of 9 (3.91)
KSSQSVLYESHNKNSVA | WASTRES | QQYHILPLY | 1.54 / 1.71 / 1.73 | 1.66 | 6 of 9 (4.43)
KSSQSVLYESRNKNSVA | WASTRES | QQGGRLSLS | 3.07 / 2.85 / nd | 2.96 | 2 of 9 (3.72)
KSHQSVLYESRNKNSVA | WASTRES | QQYHNRPLS | nd / nd / 4.98 | 4.98 | 2 of 9 (4.88)
KSSQRVLYHSRNKNSVA | WHSTRES | QQYHRLPLS | nd / 4.44 / 4.90 | 4.67 | 5 of 9 (3.78)
KSSQSGLYESRNKNSEA | WASTRES | QQYLRLPLS | nd / nd / nd | nd | 0 of 9
KSSQSSLRESRNKNSVA | WASTRES | QKYHRLPLS | nd / nd / nd | nd | 0 of 9
KSSQSVPYEGRNKNSVA | WASTRES | QQYHRLSLS | nd / nd / nd | nd | 0 of 9
KSSQSVLYESRNKDSVA | WASTRHS | QQYHRLPLC | nd / 4.42 / 3.54 | 3.98 | 3 of 9 (3.78)
KSSQSVLYESCNKNSVA | WASYRES | QQYRRLPLS | 3.72 / 2.33 / 2.44 | 2.83 | 0 of 9
KSSQSALQESRIKNSVA | WASTRES | QQYHRLPLS | 1.13 / 1.02 / 2.66 | 1.60 | 0 of 9
KSSQSVLYESRNKNSVT | WASSRES | QQYHFLPLS | 6.34 / 3.30 / nd | 4.82 | 3 of 9 (3.67)
KSSQSVLYESRNKNSVA | KANDRES | QQYHRLPLS | nd / nd / nd | nd | 1 of 9 (3.98)
KSSQSVDYESRNKNSTA | WNSTRES | QQYHRLPLS | 4.79 / 3.87 / nd | 4.33 | 5 of 9 (4.15)
LSSQSVLYESRNKNSVA | WASTRES | QKYHRLPLS | 1.90 / 1.47 / 1.64 | 1.67 | 1 of 9 (4.28)
KSSQSVLYEVRNKNSVA | WASTREW | QQYHNLPLS | 3.02 / 3.48 / 2.62 | 3.04 | 2 of 9 (3.66)
KSYQSVLYESRFKNSVA | WASTRES | QQYHRLHLS | 1.73 / 1.62 / 1.74 | 1.70 | 4 of 9 (5.39)
KESQSVLYESRNKNSVI | WASTRES | QQYHMLPLS | nd / nd / 5.72 | 5.72 | 0 of 9
KFSQSVLYESRNKNSVA | WFSTRES | QQYHRLPLE | nd / nd / nd | nd | 1 of 9 (2.57)
KSSQSVLYESRNKNSVA | SAATRES | QQYHRLPLS | 1.21 / 1.24 / 1.14 | 1.20 | 1 of 9 (4.30)
KSSQYVLYESRNKNSVA | WASTCEY | QQYHRLPLS | 4.00 / 3.42 / nd | 3.71 | 0 of 9
KSSQSVLYEIRNKNSKP | WASTRES | QQYHRLPLS | nd / nd / nd | nd | 0 of 9
KSSQSVLQESAQKNSVA | WASTRES | QQYHRLPLS | 0.59 / 0.86 / 0.67 | 0.70 | 5 of 9 (5.10)
KSSQSQLYESRNKNSRA | WASTRES | QQDHRLPLS | nd / nd / nd | nd | 1 of 9 (3.49)
KSSQMVLYESRCKNSVA | WASTREE | QQYHRLPLS | 1.29 / 1.60 / 1.52 | 1.47 | 3 of 9 (4.81)
KSSQSVLYESRNKNSVA | WNSARES | QQYHRLPLS | nd / 2.96 / nd | 2.96 | 2 of 9 (3.87)
KSSQSVLYLSRNKFSVA | WASTRPS | QQYHRLPLS | nd / 2.76 / 3.28 | 3.02 | 1 of 9 (3.74)
KSSQSVEYESRNKNSVA | WASTRES | QQTHRSPLS | 2.96 / 2.93 / 2.84 | 2.91 | 3 of 9 (5.24)
KSSQSVLMESRNKNSNA | WASTRES | QTYHRLPLS | nd / nd / nd | nd | 0 of 9
KSSQSVLYESRNHNSVA | WASTRES | QQVHRLPLR | nd / nd / nd | nd | 0 of 9
KSFQSVLYESRNKNSVA | WASTRES | QTYHRLPLS | 1.10 / 0.91 / 2.97 | 1.66 | 0 of 9
KSSQSVRYESRNKNSVN | WASTRES | QQYHRLPLS | nd / nd / nd | nd | 0 of 9
KSGQSVLYESRNKNSVA | WASTRCS | GQYHRLPLS | 2.59 / 2.26 / 2.11 | 2.32 | 2 of 9 (3.93)
KSYQSVLYESRNKNSVY | WASTRES | QQWHRLPLS | nd / 5.22 / nd | 5.22 | 1 of 9 (3.14)
KSSQSVLYESRTKNSVA | WASTRES | QQYHRSPFS | nd / nd / nd | nd | 1 of 9 (3.49)
KSSQSVLYESRNKNSVA | DASTRES | QQYNRLPDS | nd / 3.92 / nd | 3.92 | 2 of 9 (3.96)
KSSQKVLYESRNKNSVA | WAATRES | QQYYRLPLS | nd / nd / 4.66 | 4.66 | 2 of 9 (4.60)
KSEQKVLYESRGKNSVA | WASTRES | QQYHRLPLS | 1.38 / 1.54 / 1.43 | 1.45 | 1 of 9 (3.97)

5 of these entries, quoted again:

CDR-L1	CDR-L2	CDR-L3	log10 Kd, replicates	mean, log10 nM	empty controls
KSSQSVLYESRNHNSVA	WASTRES	QQVHRLPLR	nd / nd / nd	nd	0 of 9
KSEQKVLYESRGKNSVA	WASTRES	QQYHRLPLS	1.38 / 1.54 / 1.43	1.45	1 of 9 (3.97)
KSSQSGLYESRNKNSEA	WASTRES	QQYLRLPLS	nd / nd / nd	nd	0 of 9
KSSQYVLYESRNKNSVA	WASTCEY	QQYHRLPLS	4.00 / 3.42 / nd	3.71	0 of 9
KSSQRVLYHSRNKNSVA	WHSTRES	QQYHRLPLS	nd / 4.44 / 4.90	4.67	5 of 9 (3.78)